Drawing on patent US20070161637A1, “Substituted pyridin-2-ylamine analogues” (Neurogen Corporation, priority 2003, published 2007), this text covers IC50 for 1 compound.

By UniProt entry, the sequences of proteins in these tests, tags left out.
UniProt Q8NER1, whole entry: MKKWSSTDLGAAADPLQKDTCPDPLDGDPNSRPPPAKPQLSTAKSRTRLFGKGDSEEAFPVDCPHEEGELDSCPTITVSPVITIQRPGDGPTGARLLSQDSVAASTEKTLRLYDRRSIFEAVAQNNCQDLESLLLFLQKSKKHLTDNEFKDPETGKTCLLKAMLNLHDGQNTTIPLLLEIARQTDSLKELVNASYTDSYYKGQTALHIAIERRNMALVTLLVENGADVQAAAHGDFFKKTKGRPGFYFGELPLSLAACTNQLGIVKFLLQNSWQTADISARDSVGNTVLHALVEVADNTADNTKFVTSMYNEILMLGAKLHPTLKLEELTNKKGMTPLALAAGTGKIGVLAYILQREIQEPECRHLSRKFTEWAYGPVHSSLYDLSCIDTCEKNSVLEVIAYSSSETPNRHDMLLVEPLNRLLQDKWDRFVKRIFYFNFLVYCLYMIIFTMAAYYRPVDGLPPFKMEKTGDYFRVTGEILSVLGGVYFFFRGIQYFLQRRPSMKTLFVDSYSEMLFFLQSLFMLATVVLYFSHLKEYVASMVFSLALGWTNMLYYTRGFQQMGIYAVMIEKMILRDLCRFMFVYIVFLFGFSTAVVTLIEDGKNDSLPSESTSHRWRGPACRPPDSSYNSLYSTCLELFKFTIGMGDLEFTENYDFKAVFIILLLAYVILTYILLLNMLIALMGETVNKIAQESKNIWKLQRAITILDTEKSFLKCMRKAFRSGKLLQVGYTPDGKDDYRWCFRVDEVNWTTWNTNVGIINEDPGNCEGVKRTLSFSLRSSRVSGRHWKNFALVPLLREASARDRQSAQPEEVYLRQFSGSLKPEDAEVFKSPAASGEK

For orientation: IC50 means the concentration that gives 50% inhibition.

The assay has as its target human capsaicin receptor (Homo sapiens, UniProt Q8NER1). Kind of assay: Calcium mobilization assay, determination of antagonist activity (Example 6). It is filed as cell-based. The settings on record: concentration giving 50% decrease in the fluorescence response of cells expressing human capsaicin receptor exposed to capsaicin.

As for `Cc1nc(NCc2ccccc2C(F)(F)F)nc(Nc2ccc(C(F)(F)F)cc2)n1`, the concentration for half-maximal inhibition (IC50) was below 1000 nM.
